Literature values in patent publication US20130032547A1, “STABILIZATION AND DISINFECTION OF WASTES USING HIGH ENERGY E-BEAM AND CHEMICAL OXIDANTS” (priority 2011, published 2013).

Test system: endocrine disrupting activity
Conditions: studies at Tulane University; cited from earlier work

For chlorine, the “increase in endocrine disrupting activity after treatment” value is listed as “about 70%”.
